Biological target: S1P1 (Homo sapiens (Human), UniProt P21453)
Experiment: Receptor binding assay, [33P]sphingosine 1-phosphate, membranes from CHO cells expressing S1P1
Conditions: CHO cell membranes, 25 pM [33P]sphingosine 1-phosphate
Protocol: Receptor binding assay: Membranes were prepared from CHO cells expressing S1P1 or S1P3 for use in ligand and […] binding studies. Cells were suspended in 50 mM TRIS, pH 7.4, 2 mM EDTA, 250 mM Sucrose (buffer A) and 1× Complete protease inhibitor cocktail (Roche), and disrupted at 4° C. by N2 decompression using a cell disruption bomb (Parr Instrument). Following centrifugation at 1000 RPM for 10 min at 4° C., the supernatant was suspended in buffer A and centrifuged again at 19000 RPM for 60 min at 4° C. The pellet was then suspended in 10 mM HEPES, pH 7.4, 1 mM EDTA, 250 mM Sucrose (Buffer B), and 1× Complete EDTA-free protease inhibitor cocktail and homogenized using a potter. Membranes were flash frozen in liquid N2 and stored at −80° C. [33P]sphingosine 1-phosphate (3000 Ci/mmol; American Radiolabeled Chemicals, Inc.) was added to test compounds in DMSO. […] Binding was performed for 60 min at RT on a shaker and bound radioactivity was measured on a PerkinElmer 1450 MicroBeta counter. Specific binding was calculated by subtracting remaining radioactivity in the presence of 1000-fold excess of unlabeled SIP. Binding data were analyzed using the GraphPad Prism program.

Amino acid sequences for entries named in this document (tags omitted).
UniProt P21453, whole entry, species assumed: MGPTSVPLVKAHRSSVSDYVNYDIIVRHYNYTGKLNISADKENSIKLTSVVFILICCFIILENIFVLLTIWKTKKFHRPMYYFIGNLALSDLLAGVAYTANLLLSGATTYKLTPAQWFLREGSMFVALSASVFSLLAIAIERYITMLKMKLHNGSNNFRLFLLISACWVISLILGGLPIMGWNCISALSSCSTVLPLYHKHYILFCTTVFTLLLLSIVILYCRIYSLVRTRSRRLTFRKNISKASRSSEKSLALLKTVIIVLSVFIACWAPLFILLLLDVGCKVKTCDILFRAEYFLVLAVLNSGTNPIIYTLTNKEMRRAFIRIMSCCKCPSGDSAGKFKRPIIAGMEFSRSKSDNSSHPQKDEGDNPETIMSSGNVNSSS

Row | SMILES | Ki [nM]
1 | c1cc(-c2c(-c3nc(-c4ccc(Cn5ccnc5)cc4)no3)cnn2C2CCCCC2)ccn1 [Example 136, 4-{2-Cyclohexyl-4-[3-(4-imidazol-1-ylmethyl-phenyl)-[1,2,4]oxadiazol-5-yl]-2H-pyrazol-3-yl}-pyridine] | 2.06
2 | c1cc(-c2c(-c3nc(-c4ccc(Cn5ccnc5)cc4)no3)cnn2C2CCCCC2)ccn1 [Example 148] | 2.1

Reference: US8802663B2, “Pyrazole oxadiazole derivatives as S1P1 agonists” (Merck Serono SA, priority 2009, dated 2014)
